Values quoted from earlier work, collected in patent US20090306452A1, “APPARATUS FOR TREATING A CONTAMINATED MEDIA WITH A SORBENT” (priority 2008, published 2009).

Details: log10 of concentration in octanol / concentration in water; examples of hydrophobic hazardous materials

tetrachlorobenze
Log P: about 5
